Literature values as cited in paper PMC3668559 (Journal of medicinal chemistry, 2011).

System: AR AF2
Conditions: cited from earlier work

Compound: O=C(O)Cc1cc(I)c(Oc2ccc(O)c(I)c2)c(I)c1 [Compound 5, 3,3′,5 –triiodo thyroacetic acid]
- effect on AF2 peptide binding / co-activator interaction: inhibit AF2 peptide binding
